Measured values: ChEMBL document CHEMBL3351225, “Design, synthesis, and structure-activity and structure-pharmacokinetic relationship studies of novel [6,6,5] tricyclic fused oxazolidinones leading to the discovery of a potent, selective, and orally bioavailable FXa inhibitor” (J Med Chem, 2014)
pIC50: −log10 of the molar value.

Amino acid sequences for entries named in this document (tags omitted). Residues count along the entry.
UniProt P00742, 41-179 limits assumed: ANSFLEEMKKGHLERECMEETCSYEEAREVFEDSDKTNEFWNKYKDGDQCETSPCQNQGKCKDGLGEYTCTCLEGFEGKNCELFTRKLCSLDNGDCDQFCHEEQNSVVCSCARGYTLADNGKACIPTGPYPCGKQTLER
UniProt P00742, 235-488 limits assumed: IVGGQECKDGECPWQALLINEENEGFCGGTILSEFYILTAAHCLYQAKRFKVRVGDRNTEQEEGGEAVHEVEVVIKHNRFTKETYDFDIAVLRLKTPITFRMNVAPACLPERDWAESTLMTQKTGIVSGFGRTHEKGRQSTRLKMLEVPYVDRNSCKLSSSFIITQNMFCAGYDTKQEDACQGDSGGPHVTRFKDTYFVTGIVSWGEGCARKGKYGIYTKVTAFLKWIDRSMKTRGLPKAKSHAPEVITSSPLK

Target: Coagulation factor X (Homo sapiens, UniProt P00742)
Experiment: Inhibition of human factor 10a using N-Z-D-Arg-Gly-Arg-pNA, S-2765 chromogenic substrate
Outline: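 Human enzyme and inhibitor were premixed and preincubated, then the chromogenic substrate was added. Substrate levels: 300 μM S-2765 (FXa, trypsin); 200 μM S-2366 (FIIa); 2 mM S-2366 (FVIIa, FXIa). pNA release was monitored continuously at 405 nm for 20 min at 37 °C. IC50 was obtained by nonlinear regression.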

O=C(NC[C@@H]1OC(=O)N2c3ccc(N4CCCCC4=O)cc3OC[C@@H]12)c1ccc(Cl)s1
pIC50: 7.69
